Measurements reported in BindingDB's records for patent US9694002 (Genentech Inc, 2017).

Amino acid sequences for entries named in this document (tags omitted).
UniProt Q15858, whole entry: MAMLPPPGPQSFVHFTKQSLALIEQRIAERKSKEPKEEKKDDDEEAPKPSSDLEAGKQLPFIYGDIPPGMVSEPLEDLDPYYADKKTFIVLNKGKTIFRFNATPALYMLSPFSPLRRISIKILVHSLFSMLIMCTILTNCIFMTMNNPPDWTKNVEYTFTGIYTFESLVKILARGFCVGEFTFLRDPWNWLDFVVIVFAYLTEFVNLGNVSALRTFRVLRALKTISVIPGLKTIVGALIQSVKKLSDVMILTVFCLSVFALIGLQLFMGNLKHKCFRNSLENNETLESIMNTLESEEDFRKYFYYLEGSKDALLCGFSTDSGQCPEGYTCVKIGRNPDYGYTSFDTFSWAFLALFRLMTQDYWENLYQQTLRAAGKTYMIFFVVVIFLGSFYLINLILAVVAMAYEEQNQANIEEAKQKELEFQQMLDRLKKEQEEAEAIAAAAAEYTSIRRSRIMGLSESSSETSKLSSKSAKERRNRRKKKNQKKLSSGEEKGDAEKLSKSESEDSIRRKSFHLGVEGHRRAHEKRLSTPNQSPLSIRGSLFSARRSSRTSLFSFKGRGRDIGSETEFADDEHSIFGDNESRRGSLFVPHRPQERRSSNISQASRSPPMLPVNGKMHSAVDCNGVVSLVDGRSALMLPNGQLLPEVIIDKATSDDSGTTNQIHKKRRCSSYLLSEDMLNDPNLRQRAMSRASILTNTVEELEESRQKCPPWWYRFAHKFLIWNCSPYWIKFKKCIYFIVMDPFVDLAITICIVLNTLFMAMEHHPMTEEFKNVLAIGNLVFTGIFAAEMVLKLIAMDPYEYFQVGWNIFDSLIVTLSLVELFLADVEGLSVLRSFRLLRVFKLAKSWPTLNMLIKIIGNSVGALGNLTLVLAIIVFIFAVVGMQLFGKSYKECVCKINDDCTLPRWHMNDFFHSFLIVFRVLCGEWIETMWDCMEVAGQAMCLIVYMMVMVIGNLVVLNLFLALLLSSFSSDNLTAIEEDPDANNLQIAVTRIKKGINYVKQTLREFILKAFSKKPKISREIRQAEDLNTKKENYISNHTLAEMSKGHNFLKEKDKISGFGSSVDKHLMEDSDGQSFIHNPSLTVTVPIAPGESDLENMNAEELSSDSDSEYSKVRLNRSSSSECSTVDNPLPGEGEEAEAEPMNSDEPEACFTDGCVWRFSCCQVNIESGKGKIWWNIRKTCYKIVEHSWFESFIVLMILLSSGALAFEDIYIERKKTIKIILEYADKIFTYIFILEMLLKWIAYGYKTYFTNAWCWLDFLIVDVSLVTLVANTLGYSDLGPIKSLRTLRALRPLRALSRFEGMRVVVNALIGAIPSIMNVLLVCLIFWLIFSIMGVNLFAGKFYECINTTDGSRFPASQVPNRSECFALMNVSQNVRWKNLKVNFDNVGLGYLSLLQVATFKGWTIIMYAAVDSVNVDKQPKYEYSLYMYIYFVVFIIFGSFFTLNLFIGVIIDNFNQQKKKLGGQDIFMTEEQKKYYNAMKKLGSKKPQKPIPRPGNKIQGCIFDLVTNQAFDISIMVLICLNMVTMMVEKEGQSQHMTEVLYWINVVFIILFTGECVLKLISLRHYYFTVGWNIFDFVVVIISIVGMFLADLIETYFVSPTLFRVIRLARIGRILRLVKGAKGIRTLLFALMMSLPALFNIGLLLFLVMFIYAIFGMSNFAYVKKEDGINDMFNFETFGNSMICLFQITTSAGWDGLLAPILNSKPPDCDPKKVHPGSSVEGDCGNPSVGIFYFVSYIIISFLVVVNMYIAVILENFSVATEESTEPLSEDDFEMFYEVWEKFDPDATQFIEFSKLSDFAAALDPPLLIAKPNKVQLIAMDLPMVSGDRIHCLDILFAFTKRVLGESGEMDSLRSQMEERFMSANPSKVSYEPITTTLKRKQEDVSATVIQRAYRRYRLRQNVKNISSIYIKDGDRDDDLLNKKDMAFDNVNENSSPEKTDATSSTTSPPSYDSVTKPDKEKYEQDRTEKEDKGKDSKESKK

Biological target: Sodium channel protein type 9 subunit alpha (Homo sapiens, UniProt Q15858)
Assay: Radioligand Binding Assay
Conditions: pH 7.4; 25 °C

IC50: 28 nM
Compound: CS(=O)(=O)NC(=O)c1cc(C2CC2)c(CN2CCC(Oc3ccc(F)cc3Cl)CC2)cc1F [US9694002, 505]
